Antibody variant affinities, Ab-14 light chain, assay B

The measurements come from Li et al. 2023 (doi:10.1038/s41467-023-39022-2) through the FLAb antibody collection.

Target peptide (SARS-CoV-2 spike, HR2 region): PDVDLGDISGINAS

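The variants were designed computationally from a first round of random CDR variants and then made and measured. Group labels follow the data file (Ctrl: baseline library sampled from a position-specific scoring matrix, with some repeated check sequences; En: ensemble of fine-tuned language models; GP: Gaussian process model; HC: hill climbing; Gen: genetic algorithm; Gibbs: Gibbs sampling; a sequence that several methods proposed may carry one label only). In AlphaSeq, yeast of one mating type display the scFv and yeast of the other type display the target. Pairs that bind mate more often; barcode pairs of the diploids are counted by sequencing. Read counts were normalised to the haploid input and turned into Kd by a linear fit to BCL2-family pairs of known affinity, for each replicate. Mating was done six times.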

Ab-14 is the parent antibody, in scFv form: VH, then a 15-residue (Gly4Ser)3 linker, then VL. The heavy chain is unchanged in all variants.
VH: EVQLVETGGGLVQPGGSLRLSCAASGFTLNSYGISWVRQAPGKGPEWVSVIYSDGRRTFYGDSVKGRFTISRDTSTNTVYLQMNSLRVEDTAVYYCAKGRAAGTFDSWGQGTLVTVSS
VL: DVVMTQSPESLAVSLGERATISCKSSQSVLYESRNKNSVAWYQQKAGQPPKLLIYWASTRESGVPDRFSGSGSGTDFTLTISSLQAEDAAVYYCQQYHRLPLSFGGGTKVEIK

Each variant's VL is given in full.
This list holds designs with more than six substitutions.
Values are apparent Kd, the geometric mean of the replicates that gave a signal; lower means stronger binding.
"nd" marks a missing value. The strain was present, yet no cells mated with the target were sequenced in any replicate, which points to weak or no binding.
Empty control strains, which show no peptide, gave a signal in 4% of pairings with all light chain designs; the median was 430 nM and 95% of these signals were weaker than 38 nM. No background was subtracted. The control count says in how many pairings with the empty strains this scFv gave a signal.

For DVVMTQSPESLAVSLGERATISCNLKEMNVDNQTKHSNIAWYQQKAGQPPKLLIYSADQTEKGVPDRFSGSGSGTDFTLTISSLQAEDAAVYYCQQYFRLPLQFGGGTKVEIK [En_Gibbs], the assay gave 10 nM (6 of 6 replicates; controls 1 of 18). The variant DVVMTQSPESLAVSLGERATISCKLRMITGYESRNKDSIAWYQQKAGQPPKLLIYDNSTRGRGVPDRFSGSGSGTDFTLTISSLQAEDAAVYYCQQYHRLPLSFGGGTKVEIK [En_HC] gave 15 nM (6 of 6 replicates; controls 2 of 18). The variant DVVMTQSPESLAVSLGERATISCMISQLYNMGQFAINSVAWYQQKAGQPPKLLIYQASTRNAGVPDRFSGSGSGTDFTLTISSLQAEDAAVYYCQQYDRLPLIFGGGTKVEIK [En_Gen] gave 14 nM (6 of 6 replicates; controls 1 of 18). For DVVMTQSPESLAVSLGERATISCNMKVGLNFEDINHQAIAWYQQKAGQPPKLLIYSVDEREKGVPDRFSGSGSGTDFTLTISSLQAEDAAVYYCQQYYRLPLTFGGGTKVEIK [En_Gibbs], the assay gave 7.5 nM (6 of 6 replicates; controls 2 of 18). With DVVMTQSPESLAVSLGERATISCKISELMNFAQFNKQSIAWYQQKAGQPPKLLIYEVSTRSKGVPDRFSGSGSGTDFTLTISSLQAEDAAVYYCQSYNRLPLSFGGGTKVEIK [En_Gen] the result was 34 nM (6 of 6 replicates; controls 2 of 18). The variant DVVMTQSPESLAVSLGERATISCHITYGMYVAGRHSKSIAWYQQKAGQPPKLLIYQAEERAKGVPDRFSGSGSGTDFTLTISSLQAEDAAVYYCQQYDRLPLIFGGGTKVEIK [En_Gen] showed 4.8 nM (6 of 6 replicates; controls 0 of 18).

The variant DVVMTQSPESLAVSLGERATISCKLMQSDLYESRNVNNVAWYQQKAGQPPKLLIYQASQRELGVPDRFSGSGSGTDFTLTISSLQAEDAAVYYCQDYHRLPLSFGGGTKVEIK [GP_Gibbs] gave 590 pM (6 of 6 replicates; controls 0 of 18). For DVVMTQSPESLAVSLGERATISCKISQMVKVGSTHSNSIAWYQQKAGQPPKLLIYEEETRASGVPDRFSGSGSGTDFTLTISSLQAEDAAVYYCQQYHRLPLAFGGGTKVEIK [En_Gen], the assay gave 8.6 nM (6 of 6 replicates; controls 1 of 18). With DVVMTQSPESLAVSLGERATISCTISQMTSLFSQSINNVAWYQQKAGQPPKLLIYEVSMRENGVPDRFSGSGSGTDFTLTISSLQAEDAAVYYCQQYDRLPLSFGGGTKVEIK [En_Gen] the result was 2.4 nM (6 of 6 replicates; controls 2 of 18). The variant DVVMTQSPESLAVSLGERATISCMISQVMNTLTRYGNNVAWYQQKAGQPPKLLIYDLTEREEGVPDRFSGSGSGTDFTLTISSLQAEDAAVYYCQQYFRLPLSFGGGTKVEIK [En_Gen] gave 15 nM (6 of 6 replicates; controls 0 of 18). For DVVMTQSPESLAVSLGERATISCKSSQGVLFESRNKNIVAWYQQKAGQPPKLLIYKASKREYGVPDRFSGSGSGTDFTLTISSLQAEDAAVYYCGQYWRLPLSFGGGTKVEIK [Ctrl], the assay gave nd (0 of 6 replicates; controls 0 of 18). For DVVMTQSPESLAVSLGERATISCKISHMVNFESTHINAVAWYQQKAGQPPKLLIYQMSTREEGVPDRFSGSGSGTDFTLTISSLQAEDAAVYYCQQYFRLPLSFGGGTKVEIK [En_HC], the assay gave 3.0 nM (6 of 6 replicates; controls 0 of 18).

The variant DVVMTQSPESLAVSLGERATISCKASPSEEYESRNKNSVAWYQQKAGQPPKLLIYNASYRLEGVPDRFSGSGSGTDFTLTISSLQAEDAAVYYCQQYHRLPLSFGGGTKVEIK [GP_Gibbs] gave 9.3 nM (6 of 6 replicates; controls 1 of 18). The variant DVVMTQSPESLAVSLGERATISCKLSMFHNLEQINKSNVAWYQQKAGQPPKLLIYEMVTRENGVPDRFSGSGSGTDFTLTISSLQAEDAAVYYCQQYDRLPLSFGGGTKVEIK [En_HC] showed 16 nM (6 of 6 replicates; controls 1 of 18). For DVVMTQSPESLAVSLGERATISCLSSQSEYYEDANKMSVAWYQQKAGQPPKLLIYSASQRLSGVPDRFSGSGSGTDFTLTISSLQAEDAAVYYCQQYHRLPLSFGGGTKVEIK [GP_Gibbs], the assay gave 8.6 nM (6 of 6 replicates; controls 1 of 18). For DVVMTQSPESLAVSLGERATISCKLRQMTLTGGYFKNSVAWYQQKAGQPPKLLIYQASTRENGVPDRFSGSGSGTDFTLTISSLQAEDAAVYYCQSYHRLPLSFGGGTKVEIK [En_HC], the assay gave 5.8 nM (6 of 6 replicates; controls 0 of 18). The variant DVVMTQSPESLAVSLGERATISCKLRLHNLMFYEQENSIAWYQQKAGQPPKLLIYGVSNRAYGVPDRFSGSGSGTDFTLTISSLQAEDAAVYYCQQYYRLPLNFGGGTKVEIK [En_Gibbs] gave 53 nM (6 of 6 replicates; controls 2 of 18). The variant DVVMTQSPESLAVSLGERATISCKLPQSMEYESRMKQSVAWYQQKAGQPPKLLIYAASTRESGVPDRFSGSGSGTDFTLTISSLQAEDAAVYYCQQYHRLPLSFGGGTKVEIK [GP_Gibbs] showed 3.1 nM (6 of 6 replicates; controls 1 of 18).

With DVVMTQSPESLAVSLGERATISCKLRESIHVESKQKNNVAWYQQKAGQPPKLLIYENSTRESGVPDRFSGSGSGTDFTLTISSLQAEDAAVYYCQDYHRLPLSFGGGTKVEIK [En_HC] the result was 470 nM (1 of 6 replicates; controls 2 of 18). For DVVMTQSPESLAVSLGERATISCYVSGQIDEGWNQQEAIAWYQQKAGQPPKLLIYHVSYKEDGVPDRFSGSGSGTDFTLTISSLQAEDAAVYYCQQYYKLPLSFGGGTKVEIK [En_Gibbs], the assay gave nd (0 of 6 replicates; controls 2 of 18). For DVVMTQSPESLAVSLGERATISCKMKQSIEGNPLNTNSIAWYQQKAGQPPKLLIYDVDSVTEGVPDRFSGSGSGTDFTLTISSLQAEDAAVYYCQQYARLPLFFGGGTKVEIK [En_Gibbs], the assay gave 1.5 nM (6 of 6 replicates; controls 3 of 18). For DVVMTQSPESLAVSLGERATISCMISQLYNMGQFAINSVAWYQQKAGQPPKLLIYQASERYQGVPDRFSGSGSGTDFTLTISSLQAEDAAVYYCQQYDRLPLIFGGGTKVEIK [En_Gen], the assay gave nd (0 of 6 replicates; controls 0 of 18). With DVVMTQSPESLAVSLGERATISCTLMNLMGGQDEMKNSIAWYQQKAGQPPKLLIYNHEIGVRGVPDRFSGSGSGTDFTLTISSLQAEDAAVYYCQQYAHLPLVFGGGTKVEIK [En_Gibbs] the result was 78 nM (4 of 6 replicates; controls 2 of 18).

The opening 3 entries, copied out:

{"VL": "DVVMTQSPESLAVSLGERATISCNLKEMNVDNQTKHSNIAWYQQKAGQPPKLLIYSADQTEKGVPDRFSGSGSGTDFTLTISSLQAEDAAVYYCQQYFRLPLQFGGGTKVEIK", "group": "En_Gibbs", "apparent Kd": "10 nM", "detected": "6 of 6", "signal with controls": "1 of 18"}
{"VL": "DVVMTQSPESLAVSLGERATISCKLRMITGYESRNKDSIAWYQQKAGQPPKLLIYDNSTRGRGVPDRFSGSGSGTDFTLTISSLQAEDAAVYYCQQYHRLPLSFGGGTKVEIK", "group": "En_HC", "apparent Kd": "15 nM", "detected": "6 of 6", "signal with controls": "2 of 18"}
{"VL": "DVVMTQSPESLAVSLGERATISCMISQLYNMGQFAINSVAWYQQKAGQPPKLLIYQASTRNAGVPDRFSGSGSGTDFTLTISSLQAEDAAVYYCQQYDRLPLIFGGGTKVEIK", "group": "En_Gen", "apparent Kd": "14 nM", "detected": "6 of 6", "signal with controls": "1 of 18"}

The authors averaged sequences with at least three values out of six and counted those with two or fewer as poor binders.
Values of this round are not directly comparable with the first-round values of the same sequences.